The assay has as its target CD25 on CD25+ cells (UniProt P01589).

Sequences of proteins named here, by UniProt entry; tags and fusion partners are left off. Residues count along the entry.
UniProt P01589, 22-272 limits assumed: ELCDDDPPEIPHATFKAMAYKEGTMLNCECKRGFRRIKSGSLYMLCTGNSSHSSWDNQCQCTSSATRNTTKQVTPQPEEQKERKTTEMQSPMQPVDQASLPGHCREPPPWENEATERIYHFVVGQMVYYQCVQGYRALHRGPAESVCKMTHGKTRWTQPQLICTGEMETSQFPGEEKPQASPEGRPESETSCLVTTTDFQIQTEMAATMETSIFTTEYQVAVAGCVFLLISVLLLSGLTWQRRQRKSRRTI

The substance rhIL-2 (from UniProt P60568) (ligand) came in with an EC50 (read off the curve), %pSTAT5+ of CD4+FoxP3+CD25+ cells of 2 pM.

The record behind these values is patent US20250092109A1.
